Source: PMC7875674 (Journal of medicinal chemistry, 2020)

Protein sequences, listed by entry. Tags and fused reporters are not part of them. Lines headed by an entry give the natural chain unless they say otherwise; changes in a name come on top.
UniProt P05093: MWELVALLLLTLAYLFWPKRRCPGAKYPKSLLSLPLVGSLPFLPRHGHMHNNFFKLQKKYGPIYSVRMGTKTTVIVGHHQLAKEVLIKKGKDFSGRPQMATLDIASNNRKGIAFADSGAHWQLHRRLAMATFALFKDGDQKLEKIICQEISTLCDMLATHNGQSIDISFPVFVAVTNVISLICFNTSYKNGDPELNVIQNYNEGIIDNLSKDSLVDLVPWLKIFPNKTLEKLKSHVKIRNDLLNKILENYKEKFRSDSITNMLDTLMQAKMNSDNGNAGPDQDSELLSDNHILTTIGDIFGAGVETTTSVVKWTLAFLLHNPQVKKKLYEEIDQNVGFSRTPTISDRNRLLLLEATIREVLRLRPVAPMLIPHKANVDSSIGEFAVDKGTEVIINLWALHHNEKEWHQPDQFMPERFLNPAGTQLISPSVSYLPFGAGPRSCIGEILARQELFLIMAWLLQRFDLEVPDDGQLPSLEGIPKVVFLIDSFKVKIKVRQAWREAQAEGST

Biological target: P450 17A1 (Homo sapiens, UniProt P05093)
Format: binding

Substance: (R)-orteronel
- stopped-flow rapid-scanning UV-visible binding spectroscopy with SVD global fitt: 73 ± 6 s⁻¹
